ChEMBL document CHEMBL1121693 (1981)

Experiments:
[1] = test system: Mus musculus; experiment: Number of mice convulsed after intraperitoneal administration of Compound at a dose of 262 umol/kg; total no. of mice tested is 5
[2] = test system: Mus musculus; experiment: Number of mice convulsed after intraperitoneal administration of Compound at a dose of 328 umol/kg; total no. of mice tested is 5
[3] = test system: Mus musculus; experiment: Number of mice convulsed after intraperitoneal administration of Compound at a dose of 512 umol/kg; total no. of mice tested is 5
[4] = test system: Mus musculus; experiment: Number of mice convulsed after intraperitoneal administration of Compound at a dose of 410 umol/kg; total no. of mice tested is 5

| SMILES | No. of mice [1] | No. of mice [2] | No. of mice [3] | No. of mice [4] |
| --- | --- | --- | --- | --- |
| O[C@H]1CC[C@](c2ccccc2)(N2CCCCC2)CC1 | 0 | 0 | 3 |  |
| O[C@H]1CC[C@@](c2ccccc2)(N2CCCCC2)CC1 | 0 | 0 | 5 | 2 |
